Biological target: T1, LHRH receptors (Rattus norvegicus, UniProt P30969)
T1 construct: endogenous in cells; host or cells: dispersed pituitary cells, fixed after the plaque assay
T1 sequence (P30969 1-327): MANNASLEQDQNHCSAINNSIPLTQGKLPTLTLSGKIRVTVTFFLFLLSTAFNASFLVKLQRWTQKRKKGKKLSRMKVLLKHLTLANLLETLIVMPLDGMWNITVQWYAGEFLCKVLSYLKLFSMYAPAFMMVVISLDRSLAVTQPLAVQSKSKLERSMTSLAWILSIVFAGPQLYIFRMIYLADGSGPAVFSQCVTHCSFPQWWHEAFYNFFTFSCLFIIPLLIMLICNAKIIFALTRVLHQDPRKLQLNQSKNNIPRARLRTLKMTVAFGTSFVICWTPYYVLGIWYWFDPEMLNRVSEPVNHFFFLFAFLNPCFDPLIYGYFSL
Assay: Immunocytochemical assay for LHRH cell surface receptors
Assay type: cell-based
Details: control experiments
Method: After standard plaque assays were performed (as in Example 4B), the chambers were infused with sodium acetate to elute the bound antibodies and fixed sequentially in B5 fixative, ethanol, Lugol's iodide and sodium thiosulfate (as described in Smith et al., Methods in Enzymology, 124, p. 443). The slides were treated with hydrogen peroxide and normal goat serum before application of suitable dilutions of the antibodies. Immunocytochemistry was performed with the ABC method (Vector Labs, Burlingame, Calif.) with diaminobenzidine as substrate.
Cells containing LH were selectively stained with antibodies to LH. In general, plaques formed in the assays of earlier examples contained one LH-containing cell near the center of each circular plaque. Cells presenting LHRH receptors were stained using IgG fractions of immune serum from rabbits immunized with a peptide complementary to LHRH (see Example 4C). Again, one cell per circular plaque was stained and these were the same cells that contained LH.

blocking of receptor staining by the antibody (in words): could be blocked
Substance: GLN--HIS--TRP--SER--TYR--GLY--LEU--ARG--PRO--GLY [LHRH]
